This assay deals with T1, D1 receptors (Rattus norvegicus, UniProt P18901).
T1 construct: increase cAMP production in rat striatum and C-6-mD1 cells; from tissue; host or cells: rat striatum (striatal membranes)
Put plainly: cAMP production in rat striatum. The assay is classed as biochemical. The settings on record: rat striatum / rat striatal membranes, relative to dopamine. On the technique in general: cAMP levels reflect the balance of adenylyl cyclase and phosphodiesterase activity.

The chains behind the UniProt entries cited, without tags or fusion partners.
UniProt P18901, whole entry: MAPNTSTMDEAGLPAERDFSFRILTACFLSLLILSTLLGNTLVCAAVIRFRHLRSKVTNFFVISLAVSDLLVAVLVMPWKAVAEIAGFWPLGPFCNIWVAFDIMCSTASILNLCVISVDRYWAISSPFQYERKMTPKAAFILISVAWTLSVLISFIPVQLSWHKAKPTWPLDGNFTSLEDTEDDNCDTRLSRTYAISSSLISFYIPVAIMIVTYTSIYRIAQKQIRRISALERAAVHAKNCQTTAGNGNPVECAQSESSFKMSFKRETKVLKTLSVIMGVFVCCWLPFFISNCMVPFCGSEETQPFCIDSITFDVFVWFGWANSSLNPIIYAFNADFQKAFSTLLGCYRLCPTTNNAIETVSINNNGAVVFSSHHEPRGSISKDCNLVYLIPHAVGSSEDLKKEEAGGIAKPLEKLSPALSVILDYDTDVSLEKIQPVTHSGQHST

For the compound `Oc1cc2c(cc1O)C(c1ccccc1)CNCC2` (single isomer, unassigned; (+)) [(+)-SKF-38393, reference compound], the “agonist activity (intrinsic activity)” value is reported as “partial agonist”.

The values above are taken from US6916823B2, “Method of treatment of dopamine-related dysfunction” (Purdue Research Foundation, priority 2001, dated 2005).
